Laboratory results from paper PMC6664820, “Novel natural and synthetic inhibitors of solute carriers SGLT1 and SGLT2” (Pharmacology Research & Perspectives, 2019).
Counter-ions that a name gives are not always drawn.

Experiments:
SGLT1 = target: T1, SGLT1 (Homo sapiens, UniProt P13866); assay: SGLT1 inhibition assay for validation of screening hits and similar compounds (1‐NBD‐glucose uptake, CHO‐hSGLT1 cells); type: cell-based; parameters: activity: dose or concentration left out as unconfirmed
T1 sequence (P13866 1-664): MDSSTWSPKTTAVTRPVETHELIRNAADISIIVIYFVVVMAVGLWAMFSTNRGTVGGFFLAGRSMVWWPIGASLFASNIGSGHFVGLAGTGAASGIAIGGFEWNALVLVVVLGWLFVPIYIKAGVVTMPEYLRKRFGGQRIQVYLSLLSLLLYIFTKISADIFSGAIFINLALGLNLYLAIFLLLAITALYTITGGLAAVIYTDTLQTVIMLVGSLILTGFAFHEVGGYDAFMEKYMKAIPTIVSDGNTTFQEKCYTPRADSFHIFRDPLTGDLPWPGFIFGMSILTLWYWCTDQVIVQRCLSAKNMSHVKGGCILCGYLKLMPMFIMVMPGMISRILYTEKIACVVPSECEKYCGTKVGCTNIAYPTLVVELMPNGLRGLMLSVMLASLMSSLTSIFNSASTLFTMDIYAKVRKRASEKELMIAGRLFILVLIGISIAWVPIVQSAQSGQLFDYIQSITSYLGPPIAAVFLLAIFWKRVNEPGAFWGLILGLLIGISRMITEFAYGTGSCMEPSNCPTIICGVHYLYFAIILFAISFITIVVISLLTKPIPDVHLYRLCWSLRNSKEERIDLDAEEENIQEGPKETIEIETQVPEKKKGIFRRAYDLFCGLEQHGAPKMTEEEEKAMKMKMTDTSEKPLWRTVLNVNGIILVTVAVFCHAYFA

hSGLT2 = target: T2, hSGLT2 (Homo sapiens, UniProt P31639); assay: SGLT2 inhibition assay for validation of screening hits and similar compounds (1‐NBD‐glucose uptake, CHO‐hSGLT2 cells)
T2 sequence (P31639 1-672): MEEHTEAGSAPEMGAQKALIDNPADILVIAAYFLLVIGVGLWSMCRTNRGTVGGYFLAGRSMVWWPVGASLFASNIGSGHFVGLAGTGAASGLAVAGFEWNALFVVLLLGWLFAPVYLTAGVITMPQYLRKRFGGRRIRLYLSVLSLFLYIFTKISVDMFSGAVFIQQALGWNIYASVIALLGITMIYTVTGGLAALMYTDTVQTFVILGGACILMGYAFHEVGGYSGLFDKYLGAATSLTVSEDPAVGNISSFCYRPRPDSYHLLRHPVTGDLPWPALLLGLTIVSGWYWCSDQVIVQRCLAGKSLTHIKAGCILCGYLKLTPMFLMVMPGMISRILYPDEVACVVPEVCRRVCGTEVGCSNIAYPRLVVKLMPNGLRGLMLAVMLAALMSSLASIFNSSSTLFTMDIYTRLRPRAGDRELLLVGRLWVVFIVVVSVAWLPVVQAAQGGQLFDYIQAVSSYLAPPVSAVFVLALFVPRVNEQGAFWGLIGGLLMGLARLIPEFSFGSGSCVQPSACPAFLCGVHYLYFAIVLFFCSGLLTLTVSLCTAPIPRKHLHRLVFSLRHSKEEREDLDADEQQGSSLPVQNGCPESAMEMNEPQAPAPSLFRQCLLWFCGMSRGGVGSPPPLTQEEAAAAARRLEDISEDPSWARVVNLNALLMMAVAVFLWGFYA

**Q.** Which results are given for `CN1[C@@H]2CC[C@H]1C[C@@H](OC(c1ccccc1)c1ccccc1)C2` [Benztropine mesylate]?
**A.** activity (SGLT1; read-out: NORMALIZED SGLT1 ACTIVITY (%) Mean): 85%; SGLT2/SGLT1 ACTIVITY RATIO 5 uM Mean (hSGLT2): 0.9

**Q.** How did the “SGLT2/SGLT1 ACTIVITY RATIO, first concentration” value (hSGLT2) turn out when `CN[C@H]1CC[C@@H](c2ccc(Cl)c(Cl)c2)c2ccccc21` [Sertraline HCl] was run?
**A.** 0.543

**Q.** And the “SGLT2/SGLT1 ACTIVITY RATIO, second concentration” value (hSGLT2)?
**A.** 0.9

**Q.** With `CN1[C@@H]2CC[C@H]1C[C@@H](OC(c1ccccc1)c1ccccc1)C2` [benztropine] as the compound, how does the “SGLT1/2 inhibition stated in words” value (SGLT1) read?
**A.** novel SGLT1/2 inhibitors
